The record followed here is patent US10876088B2, “Modular organ microphysiological system with integrated pumping, leveling, and sensing” (Massachusetts Institute of Technology, priority 2016, dated 2020).

This data set deals with 7-way MPS platform. The settings on record: diclofenac added to apical side of gut MPS.

As for 4′-hydroxy-DCF [4-OH-DCF], the “absorption and distribution across MPS compartments” value was “detected in all the others MPS compartments”.
